In the experiment the target is human NK1 receptor (Homo sapiens, UniProt P25103). Briefly: human NK1 receptor binding assay (125I-substance P, COS or CHO cells). The note with it: read-out: IC50 value for human NK1 receptor binding activity; tested form: mixture of the two C-5 hydroxy epimers. Here is the method: To express the cloned human neurokinin-1 receptor (NKIR) transiently in COS, the cDNA for the human NKIR was cloned into the expression vector pCDM9 which was derived from pCDM8 (INVITROGEN) by inserting the ampicillin resistance gene (nucleotide 1973 to 2964 from BLUESCRIPT SK+) into the Sac II site. Transfection of 20 ug of the plasmid DNA into 10 million COS cells was achieved by electroporation in 800 ul of transfection buffer (135 mM NaCl, 1.2 mM CaCl2, 1.2 mM MgCl2, 2.4 mM K2HPO4, 0.6 mM KH2PO4, 10 mM glucose, 10 mM HEPES pH 7.4) at 260 V and 950 uF using the IBI GENEZAPPER (IBI, New Haven, Conn.). […]
The binding assay of human NK1R expressed in either COS or CHO cells is based on the use of ^125I-substance P (^125I-SP, from DU PONT, Boston, Mass.) as a radioactively labeled ligand which competes with unlabeled substance P or any other ligand for binding to the human NK1R. […] The bound radioactivity was separated from unbound radioactivity by GF/C filter (BRANDEL, Gaithersburg, Md.) which was pre-wetted with 0.1 % polyethylenimine. The filter was washed with 3 ml of wash buffer (50 mM Tris pH 7.5, 5 mM MnCl2, 150 mM NaCl) three times and its radioactivity was determined by gamma counter.

Amino acid sequences for entries named in this document (tags omitted).
UniProt P25103, whole entry: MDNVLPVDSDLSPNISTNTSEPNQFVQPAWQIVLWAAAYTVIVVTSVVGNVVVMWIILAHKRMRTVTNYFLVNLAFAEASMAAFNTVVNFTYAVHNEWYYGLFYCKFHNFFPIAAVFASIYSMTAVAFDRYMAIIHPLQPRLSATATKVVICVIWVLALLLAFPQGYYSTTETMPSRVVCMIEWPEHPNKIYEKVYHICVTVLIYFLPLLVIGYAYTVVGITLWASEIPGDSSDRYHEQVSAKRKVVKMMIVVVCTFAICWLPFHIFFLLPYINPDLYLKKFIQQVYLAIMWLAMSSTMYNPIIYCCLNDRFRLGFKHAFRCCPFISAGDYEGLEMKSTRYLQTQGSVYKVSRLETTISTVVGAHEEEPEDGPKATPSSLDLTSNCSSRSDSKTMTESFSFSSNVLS

Regarding `C[C@@H](O[C@H]1OCC(=O)NC1(O)c1ccc(F)cc1)c1cc(C(F)(F)F)cc(C(F)(F)F)c1` (stereo partly shown), the IC50 (in general, the concentration needed to halve the response being measured) is 28 nM.
